From patent EP4837910A1, “ISOXAZOLINE COMPOUND AND PREPARATION METHOD THEREFOR, HERBICIDAL COMPOSITION, AND USE” (dated 2026)

How the values were obtained:
Zea mays = assay: Pre-emergence test, crop damage (greenhouse, sprayed immediately after sowing); settings: Dosage 240 g a.i./ha, after 4 weeks in greenhouse, fresh weight control rate
[1] = tested on: Monocotyledonous and dicotyledonous weed; assay: Pre-emergence test on weeds (greenhouse, sprayed immediately after sowing); settings: Dosage 240 g a.i./ha, after 4 weeks in greenhouse, fresh weight control rate
[2] = tested on: Monocotyledonous and dicotyledonous weed; assay: Post-emergence test on weeds (greenhouse, spray tower); settings: after 3 weeks of cultivation in a greenhouse, fresh weight control rate

| SMILES | activity level of plant damage (growth control rate), Zea mays (Zea mays) | activity level of plant damage (growth control rate), Digitaria sanguinalis [1] | activity level of plant damage (growth control rate), Setaria viridis [1] | Amaranthus retroflexus, activity level of plant damage (growth control rate) ([2]; Dosage 60 g a.i./ha) | activity level of plant damage (growth control rate), Descurainia sophia [1] | activity level of plant damage (growth control rate), Lolium multiflorum [1] | Avena fatua, activity level of plant damage (growth control rate) ([2]; Dosage 240 g a.i./ha) | Digitaria sanguinalis, activity level of plant damage (growth control rate) ([2]; Dosage 240 g a.i./ha) | Echinochloa crus-galli, activity level of plant damage (growth control rate) ([2]; Dosage 240 g a.i./ha) | Amaranthus retroflexus, activity level of plant damage (growth control rate) ([2]; Dosage 240 g a.i./ha) | Digitaria sanguinalis, activity level of plant damage (growth control rate) ([2]; Dosage 60 g a.i./ha) | Echinochloa crus-galli, activity level of plant damage (growth control rate) ([2]; Dosage 60 g a.i./ha) | Avena fatua, activity level of plant damage (growth control rate) ([2]; Dosage 120 g a.i./ha) |
| --- | --- | --- | --- | --- | --- | --- | --- | --- | --- | --- | --- | --- | --- |
| C=C(C)[C@]1(C(=O)N[C@@H](C)C(=O)N(CCOC)OCC)CC(c2cc(F)cc(F)c2)=NO1 | 1 (Level 1: growth control rate less than 10%) | 9 | 6 (Level 6: growth control rate greater than or equal to 70% and less than 80%) | 5 (Level 5: growth control rate greater than or equal to 50% and less than 70%) | – | – | – | – | – | – | – | – | – |
| C=C(C)C1(C(=O)N[C@@H](C)C(=O)NOCC)CC(c2cc(F)cc(F)c2)=NO1 (stereo partly drawn) | 2 (Level 2: growth control rate greater than or equal to 10% and less than 20%) | 9 | 9 | – | 9 | 9 | 9 | 8 (Level 8: growth control rate greater than or equal to 90% and less than 100%) | 9 | – | – | – | – |
| C=C[C@]1(C(=O)N[C@@H](C)C(=O)NOCC(=C)C)CC(c2cc(F)cc(F)c2)=NO1 | 0 | – | – | – | 8 (Level 8: growth control rate greater than or equal to 90% and less than 100%) | 5 (Level 5: growth control rate greater than or equal to 50% and less than 70%) | – | – | 5 (Level 5: growth control rate greater than or equal to 50% and less than 70%) | – | – | – | – |
| C=C[C@]1(C(=O)N[C@@H](C)C(=O)NOC)CC(c2cc(Cl)cc(Cl)c2)=NO1 | 0 | – | – | – | 5 (Level 5: growth control rate greater than or equal to 50% and less than 70%) | 9 | – | 8 (Level 8: growth control rate greater than or equal to 90% and less than 100%) | – | 5 (Level 5: growth control rate greater than or equal to 50% and less than 70%) | – | – | – |
| C=C(C)[C@]1(C(=O)N[C@@H](C)C(=O)N(CC)OC)CC(c2cc(F)cc(F)c2)=NO1 | 2 (Level 2: growth control rate greater than or equal to 10% and less than 20%) | 9 | 9 | – | 9 | 7 (Level 7: growth control rate greater than or equal to 80% and less than 90%) | – | 9 | 8 (Level 8: growth control rate greater than or equal to 90% and less than 100%) | – | – | – | – |
| C=C[C@]1(C(=O)N[C@@H](C)C(=O)N(C)OC)CC(c2cc(F)cc(Cl)c2)=NO1 | 2 (Level 2: growth control rate greater than or equal to 10% and less than 20%) | 9 | 9 | – | 9 | 9 | 9 | – | – | – | – | – | – |
| C=C(C)[C@]1(C(=O)N[C@@H](C)C(=O)NOC(C)(C)C)CC(c2cc(F)cc(F)c2)=NO1 | 2 (Level 2: growth control rate greater than or equal to 10% and less than 20%) | 9 | 9 | – | 5 (Level 5: growth control rate greater than or equal to 50% and less than 70%) | 9 | – | – | – | – | 8 (Level 8: growth control rate greater than or equal to 90% and less than 100%) | 8 (Level 8: growth control rate greater than or equal to 90% and less than 100%) | – |
| C=C[C@]1(C(=O)N[C@@H](C)C(=O)NOCC)CC(c2cc(Br)cc(C(F)(F)F)c2)=NO1 | 1 (Level 1: growth control rate less than 10%) | – | – | 7 (Level 7: growth control rate greater than or equal to 80% and less than 90%) | 9 | 7 (Level 7: growth control rate greater than or equal to 80% and less than 90%) | – | – | – | – | – | – | – |
| C=C[C@]1(C(=O)N[C@H](C)C(=O)NOC)CC(c2cc(Cl)cc(Cl)c2)=NO1 | 1 (Level 1: growth control rate less than 10%) | 7 (Level 7: growth control rate greater than or equal to 80% and less than 90%) | – | – | 9 | 9 | 9 | – | – | – | – | – | – |
| C#CC[C@H](NC(=O)[C@@]1(C=C)CC(c2cc(F)cc(F)c2)=NO1)C(=O)N(C)OC | 0 | 8 (Level 8: growth control rate greater than or equal to 90% and less than 100%) | 7 (Level 7: growth control rate greater than or equal to 80% and less than 90%) | – | 9 | 9 | 9 | – | – | – | – | – | – |
| C=C(C)C1(C(=O)N[C@H](C(=O)NOCC)C(C)C)CC(c2cc(F)cc(F)c2)=NO1 (stereo partly drawn) | 1 (Level 1: growth control rate less than 10%) | 9 | 6 (Level 6: growth control rate greater than or equal to 70% and less than 80%) | 5 (Level 5: growth control rate greater than or equal to 50% and less than 70%) | 5 (Level 5: growth control rate greater than or equal to 50% and less than 70%) | – | – | – | – | – | 6 (Level 6: growth control rate greater than or equal to 70% and less than 80%) | 5 (Level 5: growth control rate greater than or equal to 50% and less than 70%) | – |
| C=C[C@]1(C(=O)N[C@@H](C)C(=O)NOC)CC(c2cc(Cl)cc(C(F)(F)F)c2)=NO1 | 1 (Level 1: growth control rate less than 10%) | – | – | – | – | 9 | – | – | – | – | – | – | 9 |
| C=C[C@]1(C(=O)N[C@@H](C)C(=O)N(C)OC)CC(c2cc(F)cc(Br)c2)=NO1 | 2 (Level 2: growth control rate greater than or equal to 10% and less than 20%) | 9 | 8 (Level 8: growth control rate greater than or equal to 90% and less than 100%) | – | 6 (Level 6: growth control rate greater than or equal to 70% and less than 80%) | 9 | 9 | – | – | – | – | – | – |
| C=C[C@]1(C(=O)N[C@@H](C)C(=O)NOC)CC(c2cc(F)cc(Cl)c2)=NO1 | 0 | – | – | – | 9 | 9 | – | 6 (Level 6: growth control rate greater than or equal to 70% and less than 80%) | – | – | – | – | – |
| C#CC[C@H](NC(=O)[C@@]1(C(=C)C)CC(c2cc(F)cc(F)c2)=NO1)C(=O)NOCC | 1 (Level 1: growth control rate less than 10%) | 9 | 8 (Level 8: growth control rate greater than or equal to 90% and less than 100%) | 8 (Level 8: growth control rate greater than or equal to 90% and less than 100%) | – | – | – | – | – | – | 8 (Level 8: growth control rate greater than or equal to 90% and less than 100%) | 6 (Level 6: growth control rate greater than or equal to 70% and less than 80%) | – |
| C=C[C@]1(C(=O)N[C@@H](C)C(=O)N(C)OC)CC(c2cc(Br)cc(Br)c2)=NO1 | 0 | 9 | 9 | – | – | 8 (Level 8: growth control rate greater than or equal to 90% and less than 100%) | – | – | – | – | – | – | 9 |
| CON(C)C(=O)[C@H](C)NC(=O)C1(C(C)(F)F)CC(c2cc(F)cc(F)c2)=NO1 (stereo partly drawn) | 2 (Level 2: growth control rate greater than or equal to 10% and less than 20%) | 9 | 9 | 6 (Level 6: growth control rate greater than or equal to 70% and less than 80%) | 9 | 9 | – | – | – | – | – | – | – |
| C=CC1(C(=O)O[C@@H](C)C(=O)N(C)OC)CC(c2cc(F)cc(F)c2)=NO1 (stereo partly drawn) | 0 | – | – | – | 8 (Level 8: growth control rate greater than or equal to 90% and less than 100%) | 9 | – | – | – | – | – | – | – |
